Measured affinities in a library of Ab-14 heavy chain variants

Data: MIT Lincoln Laboratory AlphaSeq set, Li et al. 2023, doi:10.1038/s41467-023-39022-2, as distributed in FLAb.

All variants were tested on one target, the spike HR2 peptide PDVDLGDISGINAS (SARS-CoV-2).

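The parent was found by panning a naive human phage display library on the peptide. This is the validation round: designs drawn from the data on random variants, tested in the same kind of assay. Their group label is 14H_En_Gibbs (En: ensemble of fine-tuned language models; Gibbs: Gibbs sampling). The assay is AlphaSeq: two haploid yeast populations carry antibody and antigen on their surface. The frequency of each diploid, read from paired DNA barcodes, reflects how well the two displayed proteins bind. Read counts were normalised to the haploid input and turned into Kd by a linear fit to BCL2-family pairs of known affinity, for each replicate. Mating was done six times.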

Parent scFv Ab-14: VH joined to VL by the linker GGGGSGGGGSGGGGS. Changes lie in the heavy chain CDRs alone.
VH: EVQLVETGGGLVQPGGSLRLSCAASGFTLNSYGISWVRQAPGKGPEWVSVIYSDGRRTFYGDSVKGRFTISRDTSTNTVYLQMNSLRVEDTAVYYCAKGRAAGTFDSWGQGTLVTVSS
VL: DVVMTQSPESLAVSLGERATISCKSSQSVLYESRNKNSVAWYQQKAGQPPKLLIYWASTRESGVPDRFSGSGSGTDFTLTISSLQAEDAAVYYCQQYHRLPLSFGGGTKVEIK

Each variant is given by its three heavy chain CDRs, as the data file delimits them; those of the parent are GFTLNSYGIS, VIYSDGRRTFYGDSVK, GRAAGTFDS.
The read-out is the apparent dissociation constant on a log10 scale (nM): the lower, the stronger.
"ND" marks a missing value. The strain was present, yet no cells mated with the target were sequenced in that replicate, which points to weak or no binding.
Of ten entries with the parent sequence, four were seen in most replicates (averages 0.34 to 2.37), three in one and three in none, so single entries are noisy.
A sequence measured in both rounds can read differently, since the two assays cover different ranges.
In the paper, a design with two or fewer of six values counts as a poor binder.
As a blank, each scFv also met three strains without target: over all heavy chain designs, 1% of these pairings were detected, typically at 2.08 and seldom below 0.84. The control count says in how many pairings with the empty strains this scFv gave a signal, with their mean in brackets.

| CDR-H1 | CDR-H2 | CDR-H3 | log10 Kd (nM) by replicate | empty controls |
|---|---|---|---|---|
| GFDVNEYGIS | VIYADGVRRTYADAVK | GNLSGVVDV | ND / ND / ND / ND / ND / ND | 0/18 |
| GEDLNSYGIS | VIYADGLRTAYADNFK | GNGEGQFDM | 2.93 / ND / ND / ND / 2.67 / 3.24 | 3/18 (2.73) |
| GKSLDEYGIS | VIYADGMRVEYQNQVK | GTTVGDFFV | ND / ND / ND / ND / ND / ND | 0/18 |
| GFAIDEFGIS | VIYADGKRTSYSDTVK | GQLGNAFDL | ND / ND / ND / ND / ND / ND | 0/18 |
| GFEIEEYGIS | VIYADGQRSSYVDNVK | GKVDTVVMY | ND / ND / ND / ND / ND / ND | 0/18 |
| GFQLDEFGIS | VIYADGKRSSYVDDVK | GETTGAFSV | ND / ND / ND / ND / ND / ND | 0/18 |
| GFDIGEYGIS | VIYADGQRTAYKPTVK | GNNTGLVFI | ND / ND / ND / ND / ND / 3.49 | 0/18 |
| GFKLDEYGIS | VIYADGCRKMYADSVK | GKDTVVKLV | ND / ND / ND / ND / ND / ND | 0/18 |
| GFNLNEYGIS | VIYADGTRMGYANSVK | GAVHGFYLI | ND / ND / ND / ND / ND / ND | 0/18 |
| GFDLDEYGVS | VIYADGERTFYQDKVK | GTHGGTRDI | ND / ND / ND / ND / ND / 1.83 | 0/18 |
| GNVLDEYGIS | VIYADGMRTSYAQNVK | GIEGDNFMT | ND / ND / ND / ND / ND / ND | 1/18 (0.47) |
| EFDLNNYGIS | VIYADGLRTAYETSVK | GDNAGTFVS | ND / ND / ND / ND / ND / ND | 0/18 |
| GFNLDEYGIS | VIYADGARTAYADKVK | GFNWNISVN | ND / ND / ND / ND / ND / ND | 0/18 |
| GKDIEEYGVS | VIYADGKRTAYANNFK | GSNAGSFVS | ND / ND / ND / ND / ND / 1.66 | 0/18 |
| GFDLNEYGIS | VIYADGVQRFYTDDVK | GGNQGTFVL | ND / 2.66 / ND / ND / ND / ND | 0/18 |
| GHDINEYGIS | VIYADGKRSQYAQDVK | GQNQGQGTT | ND / ND / ND / ND / ND / ND | 1/18 (1.68) |
| GFDLNEYGIS | VIYADGVRRTYQDAVK | VDQSGVIDV | ND / ND / ND / ND / ND / 2.10 | 1/18 (2.02) |
| GFSLEEQGIS | VIYADGSRRAYAQDVK | GGTAVGFVV | ND / ND / ND / ND / ND / 1.49 | 0/18 |
| GFDLNEYGIS | VIYADGVRTGYQQQVK | GYHSFGLNQ | 2.15 / ND / ND / ND / 3.08 / ND | 0/18 |
| GFDINEMGIS | VIYADGQRLFYAQEVK | GENTGTFDM | ND / ND / ND / ND / ND / ND | 0/18 |
| GFSINEYGIS | VIYADGLRQFYTNAVK | GMAAGTFDQ | 1.00 / 1.05 / 1.32 / 0.95 / 1.66 / 0.91 | 1/18 (2.31) |
| GSDLNEYGIS | VIYADGKRSYYTDAVK | GGYNIGASV | ND / ND / ND / ND / ND / ND | 0/18 |
| GFSLNEYGIS | VIYADGTRMAYTNSVK | GLMGFVGGM | ND / ND / ND / ND / ND / ND | 0/18 |
| GFSINEYGIS | VIYADGMRTAYVESVK | GTIDENFNT | ND / ND / ND / 3.56 / ND / ND | 0/18 |
| GQDIEEYGIS | VIYADGMRTVYSDSVK | SGRTVAIDV | ND / ND / ND / ND / ND / ND | 0/18 |
| GFGLMDYGIS | VIYADGSRRSYANSFK | GAHAGTFDF | 1.66 / 1.10 / 1.82 / 1.35 / 1.15 / 0.92 | 0/18 |
| GEDMQEYGIS | VIYADGLRAAYSDNFK | GGLGGTFDM | ND / ND / 1.76 / ND / ND / 0.56 | 0/18 |
| GFDINEYGIS | VMYADGSRKVYQDKVK | GFQSGTFDT | -0.42 / -0.14 / -0.33 / -0.61 / -0.41 / -0.39 | 0/18 |
| GFNLNEYGIS | VIYADGNRNAYADSVK | GLHANFFDI | 2.32 / ND / ND / ND / 2.25 / ND | 0/18 |
| GNNLEEYGIS | VIYADGMRTAAVDSVK | GDQSGTVVY | ND / ND / ND / ND / ND / ND | 0/18 |
| GFDLEEYGIS | VIYADGRRSSYTDKVK | GGTVQMNGI | ND / ND / ND / ND / ND / ND | 0/18 |
| GFEVDEYGIS | VIYADGKRSMYANKFK | GHIAGMMFV | ND / ND / ND / ND / ND / ND | 0/18 |
| GKDMEDYGIS | VIYADGSRAAYGDNFK | GELAGTFDM | ND / 2.03 / ND / ND / ND / ND | 0/18 |
| GFDLDKYGIS | VIYADGRRKAYQTQFK | GGQTGTFDI | 0.14 / 0.85 / 0.37 / -0.05 / 0.28 / 0.06 | 0/18 |
| GFDIEEMGIS | VIYADGIRQAYKNDVK | GKNVGRFAV | ND / ND / ND / ND / ND / ND | 0/18 |
| GFNLDEYGIS | VIYADGRRTSYRDKFK | GAQNFSVMM | ND / ND / ND / 1.66 / ND / ND | 0/18 |
| GFDLDEYGIS | VIYADGHRTNYSTSVK | GTIGGTFFQ | 1.36 / ND / ND / ND / ND / ND | 0/18 |
| GFGLDEYGIS | VIYADGFRAYYHDNVK | GFNSGVDIL | ND / ND / ND / ND / ND / ND | 0/18 |
| GGDLNEYGIS | VIYADGVRKNYIDSVK | GQTGIDLNI | ND / ND / ND / ND / 2.86 / ND | 0/18 |
| GFDLDEYGIS | VIYADGKRTSYQADVK | GVQVGNALV | ND / ND / ND / ND / ND / ND | 0/18 |
| GFDINEYGIS | VIYADGFRTAYVQQVK | GQHLGSVEV | ND / ND / ND / ND / ND / ND | 0/18 |
| GFVIDEYGIS | VIYADGKRQVYQDKVK | GKGTGNFDT | ND / ND / ND / ND / ND / ND | 0/18 |
| GFNLDEYGVS | VIYADGKRTVYHDSVK | GSFLGVKLN | ND / ND / ND / ND / ND / ND | 1/18 (0.16) |
| GEQLDEYGIS | VIYADGRKQYYANSVK | GDSADGFDL | ND / ND / ND / ND / ND / ND | 1/18 (-0.02) |
| GFDINEYGIS | VIYADGMRKAVEQNVK | GNNGRSVVI | ND / ND / ND / ND / ND / ND | 0/18 |
| GSKLDEYGIS | VIYADGKRSFYSNNVK | GGKAGGTTV | ND / ND / ND / ND / ND / ND | 1/18 (1.11) |
| GFILDEYGVS | VIYADGIRTQYTNDVK | GLYSGAFVI | ND / ND / ND / ND / ND / ND | 0/18 |
| GEDLQEYGIS | VIYADGFRQSYSDKVK | GQHGGFLVK | ND / ND / ND / ND / ND / ND | 0/18 |
| GADLDEYGIS | VIYADGNRQAYANSFK | GTNGTFLIN | ND / ND / ND / ND / ND / ND | 0/18 |
| GNVLDEYGIS | VIYADGVRTAYAQRVK | GETGDNAMT | ND / ND / ND / ND / ND / ND | 0/18 |
| GFDLNEYGIS | VIYADGIRQAYEDNVK | GRNIINLLF | ND / ND / ND / ND / ND / ND | 0/18 |
| GFKLEEYGIS | VIYADGQRVAYVDKVK | GQHAGMFDQ | ND / ND / ND / ND / ND / ND | 0/18 |